Literature values, collected in patent US20150164917A1, “FORMULATIONS FOR THE PREPARATION OF IMMEDIATE-RELEASE TABLETS FOR ORAL USE CONTAINING LOW-DOSE MIFEPRISTONE FOR THE TREATMENT OF ENDOMETRIOSIS, TABLETS THUS OBTAINED AND THEIR PREPARATION PROCESS” (VALPHARMA INTERNATIONAL S.P.A., priority 2012, published 2015).

Biological target: T1, progesterone receptor (Homo sapiens, UniProt P06401)
T1 sequence (P06401 1-933): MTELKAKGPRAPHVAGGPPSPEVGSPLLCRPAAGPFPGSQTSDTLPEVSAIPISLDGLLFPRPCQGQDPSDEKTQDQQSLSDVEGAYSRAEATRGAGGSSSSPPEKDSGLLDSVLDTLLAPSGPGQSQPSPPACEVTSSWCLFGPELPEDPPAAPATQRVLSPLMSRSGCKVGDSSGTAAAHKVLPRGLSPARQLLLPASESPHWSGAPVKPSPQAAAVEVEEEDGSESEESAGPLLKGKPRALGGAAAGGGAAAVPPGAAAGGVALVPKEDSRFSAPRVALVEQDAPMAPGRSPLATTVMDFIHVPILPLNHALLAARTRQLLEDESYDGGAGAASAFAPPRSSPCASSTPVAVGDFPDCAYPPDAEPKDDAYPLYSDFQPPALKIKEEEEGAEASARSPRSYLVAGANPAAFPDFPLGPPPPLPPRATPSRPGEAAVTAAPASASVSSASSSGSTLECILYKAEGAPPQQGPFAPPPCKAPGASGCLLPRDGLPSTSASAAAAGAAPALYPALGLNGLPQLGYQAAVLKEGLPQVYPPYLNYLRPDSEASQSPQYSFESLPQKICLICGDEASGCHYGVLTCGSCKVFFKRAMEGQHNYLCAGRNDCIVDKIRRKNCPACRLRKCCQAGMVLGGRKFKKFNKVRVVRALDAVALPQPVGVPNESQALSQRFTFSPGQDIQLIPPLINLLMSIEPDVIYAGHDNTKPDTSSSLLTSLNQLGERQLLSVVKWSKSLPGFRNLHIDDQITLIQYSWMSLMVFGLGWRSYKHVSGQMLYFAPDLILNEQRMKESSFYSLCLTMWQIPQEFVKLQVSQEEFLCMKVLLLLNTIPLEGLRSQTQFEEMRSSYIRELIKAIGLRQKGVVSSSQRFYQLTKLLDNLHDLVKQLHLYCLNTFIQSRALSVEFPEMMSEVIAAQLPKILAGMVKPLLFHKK
Conditions: endometrial level; relative to progesterone itself

- ability to bind with the progesterone receptor relative to progesterone: 5 times
Compound: CC#C[C@]1(O)CC[C@H]2[C@@H]3CCC4=CC(=O)CCC4=C3[C@@H](c3ccc(N(C)C)cc3)C[C@@]21C [Mifepristone]
